Experimental data taken from PubChem BioAssay AID2717 (Broad Institute, 2010).
This is a selection; strong and weak results do not stand in their true shares. Some of these compounds have results that are not shown, active ones among them. Calls of active or inactive are those of the source. Cut-off read from the data, not from the text of the source: active = inhibition above about 75%; inconclusive = no clear call, values can overlap the other calls; inactive = below that; tested in HMLE shEcad cells.

experiment: cancer stem cell viability inhibitors, primary screen, luminescence (AID 2717); conditions: cancer stem cell-like cells viability, at 7.5 µM, active compounds read high

Row | Compound | inhibition
1 | COc1ccc(C(=O)NCC2(N(C)C)CCCCC2)cc1 | inactive: -7.1%
2 | CCN1CCCC(OC(=O)C2(O)c3ccccc3C=Cc3ccccc32)C1 (configuration not stated) | inactive: -1.04%
3 | Cc1cc(C(=O)NCC2(N3CCCCC3)CCCCC2)ccc1[N+](=O)[O-] | inactive: 16%
4 | O=C(NCC1(N2CCCCC2)CCCCC1)c1cccc(Br)c1 | inactive: -2.3%
5 | C=CCN1CCN(CCOC(=O)C(O)(c2ccccc2)c2ccccc2)CC1 | inactive: -6.96%
6 | Cc1ccccc1C(=O)NCC1(N2CCCCC2)CCCCC1 | inactive: -12.1%
7 | CN(C)c1ccc(C(=O)NCC2(N(C)C)CCCCC2)cc1 | inactive: -4.27%
8 | CN(C)C1CCCC1OC(=O)C(O)(c1ccccc1)c1ccccc1 (configuration not stated) | inactive: -2.59%
9 | Cc1ccc(C(=O)NCC2(N3CCCCC3)CCCCC2)cc1 | inactive: -4.12%
10 | CCN(CC)CC(C)C(C)OC(=O)C(O)(c1ccccc1)c1ccccc1 (configuration not stated) | inactive: -18.2%
11 | COc1cc(SC)ccc1C(=O)NCC1(N(C)C)CCCCC1 | inactive: -6.21%
12 | CC(C)N1C(=O)CC2(CCN(CCOC(=O)C(O)(c3ccccc3)c3ccccc3)CC2)C1=O | inactive: -15.5%
13 | CN1[C@@H]2CC[C@H]1CC(OC(=O)C(O)(c1ccccc1)c1ccccc1)C2 (some centres not stated) | inactive: -11.1%
14 | O=C(NCC1(N2CCCCC2)CCCCC1)c1cc([N+](=O)[O-])ccc1Cl | inactive: 4.91%
15 | CC(C)Oc1ccc(C(=O)NCC2(N(C)C)CCCCC2)cc1 | inactive: -4.63%
16 | CN(C)c1cccc(C(=O)NCC2(N(C)C)CCCCC2)c1 | inactive: -0.153%
17 | COc1ccc(Br)c(C(=O)NCC2(N3CCCCC3)CCCCC2)c1 | inactive: 8.12%
18 | O=C(OC1CN2CCC1CC2)C(CO)(c1ccccc1)c1ccccc1 (configuration not stated) | inactive: -19.9%
19 | O=C(NCC1(N2CCCCC2)CCCCC1)c1cccc(Cl)c1 | inactive: -5.06%
20 | COc1ccc(Cl)cc1C(=O)NCC1(N(C)C)CCCCC1 | inactive: -10.3%
21 | COc1cc(C(=O)NCC2(N(C)C)CCCCC2)c([N+](=O)[O-])cc1OC | inactive: -10.2%
22 | CN(C)C1(CNC(=O)c2ccc(Br)cc2)CCCCC1 | inactive: -14.7%
